The text below walks through data of ChEMBL document CHEMBL1145905, “Design and synthesis of novel dimeric morphinan ligands for kappa and micro opioid receptors” (J Med Chem, 2003).

Chains of the proteins cited; added tags and fusions are not shown. Lines headed by an entry give the natural chain unless they say otherwise; changes in a name come on top.
UniProt P41145: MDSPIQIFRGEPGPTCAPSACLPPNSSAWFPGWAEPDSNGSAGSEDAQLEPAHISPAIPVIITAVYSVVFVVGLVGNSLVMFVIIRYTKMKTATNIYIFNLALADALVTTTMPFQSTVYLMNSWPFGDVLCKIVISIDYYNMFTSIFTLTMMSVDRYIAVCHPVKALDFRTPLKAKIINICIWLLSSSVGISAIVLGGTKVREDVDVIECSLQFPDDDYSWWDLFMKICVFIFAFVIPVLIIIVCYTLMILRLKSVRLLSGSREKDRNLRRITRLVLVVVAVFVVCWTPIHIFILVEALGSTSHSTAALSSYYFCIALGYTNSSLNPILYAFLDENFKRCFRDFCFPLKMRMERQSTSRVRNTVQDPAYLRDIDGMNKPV
UniProt P35372, whole entry, looked up: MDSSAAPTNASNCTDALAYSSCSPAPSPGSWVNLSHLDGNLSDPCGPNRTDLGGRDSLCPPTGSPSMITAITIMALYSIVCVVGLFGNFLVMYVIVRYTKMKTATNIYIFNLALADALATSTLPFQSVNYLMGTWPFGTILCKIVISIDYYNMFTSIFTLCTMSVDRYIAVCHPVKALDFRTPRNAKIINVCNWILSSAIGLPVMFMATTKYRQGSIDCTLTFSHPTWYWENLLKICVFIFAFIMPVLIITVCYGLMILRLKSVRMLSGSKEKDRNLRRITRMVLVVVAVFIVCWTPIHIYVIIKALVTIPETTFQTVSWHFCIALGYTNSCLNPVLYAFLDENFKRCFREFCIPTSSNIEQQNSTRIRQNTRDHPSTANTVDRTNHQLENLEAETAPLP
UniProt P41143, whole entry, looked up: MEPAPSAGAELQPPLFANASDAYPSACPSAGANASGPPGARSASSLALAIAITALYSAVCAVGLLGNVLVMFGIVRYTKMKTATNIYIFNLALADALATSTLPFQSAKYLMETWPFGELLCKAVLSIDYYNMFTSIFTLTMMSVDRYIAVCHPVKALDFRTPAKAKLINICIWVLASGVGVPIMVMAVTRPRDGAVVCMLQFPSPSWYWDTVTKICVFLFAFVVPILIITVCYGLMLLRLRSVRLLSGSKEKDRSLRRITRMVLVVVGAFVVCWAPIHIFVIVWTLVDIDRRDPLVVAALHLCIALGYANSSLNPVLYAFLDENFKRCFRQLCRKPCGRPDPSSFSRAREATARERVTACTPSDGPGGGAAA

SMILES strings stand for the structures. A value given as a limit tells only on which side of the number the result lay.

Experiment [1] concerns the target Opioid receptors; mu & kappa (Homo sapiens) (UniProt P41145+P35372). Description: Selective inhibitory activity was determined against kappa & mu opioid receptor in chinese Hamster Ovary (CHO) cell membranes.
In experiment [2] the target is Opioid receptors; delta & kappa (Homo sapiens) (UniProt P41145+P41143). Description: Selective inhibitory activity was determined against kappa & delta opioid receptor in chinese Hamster Ovary (CHO) cell membranes.

In the case of `CN(C(=O)Cc1cccc2occc12)[C@H]1CC[C@@]2(CCCO2)C[C@@H]1N1CCCC1`, the Selectivity was 80 in experiment [1] and more than 1000 in experiment [2].
